Our source for the Kd, dH and stoichiometry N values is article PMC9764201, “Half-calcified calmodulin promotes basal activity and inactivation of the L-type calcium channel CaV1.2” (The Journal of Biological Chemistry, 2022).

Test [1] deals with fluorescein-labeled CaV1.2 IQ peptide K1662E (rat). In words: fluorescence polarisation; fluorescein-labeled peptides (100 nM) titrated with Ca2/CaM12’ in 20 mM Tris, pH 7.4, 100 mM KCl, 1 mM MgCl2, 1.0 mM CaCl2. For orientation: Fluorescence polarisation rises when a labelled molecule tumbles more slowly, as on binding a larger partner.
Test [2] concerns the target CaV1.2 IQ peptide F1658A (rat). In words: ITC; 27 °C; Ca2/CaM12’ (0.1 or 0.5 mM, injectant) titrated into IQ peptide (10 or 50 μM, 1.5 ml) in the sample cell; 20 mM Tris, pH 7.4, 100 mM KCl, 1 mM CaCl2; 35 injections of 10 μl.
For test [3], the target named is CaV1.2 IQ peptide F1658D (rat). The test is described as above.
For test [4], the target named is CaV1.2 IQ peptide I1654A (rat). Described as above.
In test [5] the target is CaV1.2 IQ peptide Y1649A (rat). The description is as above.
For test [6], the target named is CaV1.2 IQ peptide Y1657D (rat). Described as above.

As usually defined, the Kd is the free concentration of one partner at which half of the binding sites on the other are occupied at equilibrium, for simple one-to-one binding. Read a high Kd as a looser complex. As usually defined, the stoichiometry N is the number of molecules, sites or subunits per partner or assembly. Take “Ca2/CaM12’ (calmodulin mutant D21A/D23A/D25A/E32Q/D57A/D59A/N61A/E68Q with Ca2+ bound at EF3 and EF4) (from UniProt P0DP33 1-149) (natural protein)”: the Kd was below 100 nM in test [1]; 32 nM in test [2]; 4000 nM in test [3]; 60 nM in test [4]; 26 nM in test [5]; 8000 nM in test [6]. In addition, the dH in test [2] was -9.5 kcal/mol; in test [3] it was -5.9 kcal/mol; in test [4] it was -9.2 kcal/mol; in test [5], -9.7 kcal/mol; in test [6], -5.6 kcal/mol. For the same substance, the stoichiometry N was 1 in test [2]; 0.8 in test [3]; 0.89 in test [4]; 0.88 in test [5]; 0.72 in test [6].
